Experimental data taken from patent US20030088057.

purified catalytic subunit of cAMP-dependent protein kinase from bovine heart
32P incorporated (ARKASAA): 108 pmol/unit | 32P incorporated, % (AKRASAA = 100) (ARKASAA): 2240% | 32P incorporated (AKRESAA): 1.8 pmol/unit | 32P incorporated, % (AKRASAA = 100) (AKRESAA): 38% | 32P incorporated (PKRASAA): 6.9 pmol/unit | 32P incorporated, % (AKRASAA = 100) (PKRASAA): 144% | 32P incorporated (ARRASAA): 137 pmol/unit | 32P incorporated, % (AKRASAA = 100) (ARRASAA): 2860% | 32P incorporated (RKKKSAA): 5.4 pmol/unit | 32P incorporated, % (AKRASAA = 100) (RKKKSAA): 112% | 32P incorporated (AKRASAA): 4.8 pmol/unit | 32P incorporated, % (AKRASAA = 100) (AKRASAA): 100% | 32P incorporated (AKRASEA): 3.6 pmol/unit | 32P incorporated, % (AKRASAA = 100) (AKRASEA): 75% | 32P incorporated (KKRKSAA): 19.8 pmol/unit | 32P incorporated, % (AKRASAA = 100) (KKRKSAA): 412% | 32P incorporated (EKRASAA): 1.7 pmol/unit | 32P incorporated, % (AKRASAA = 100) (EKRASAA): 4% | 32P incorporated (AKRPSAA): 10.3 pmol/unit | 32P incorporated, % (AKRASAA = 100) (AKRPSAA): 215%
